This passage reports Ratio: KBV-1/KB-3-1 and IC50 results from patent US5821363A, “Antineoplastic use and pharmaceutical compositions containing them” (priority 1996, dated 1998).

The assay deals with KB-V1. Put plainly: killing of multidrug resistant KB-V1 cells. It is filed as cell-based.

Each structure is given as a SMILES string.

Regarding `COCO[C@H]1C[C@H]2OC[C@@]2(OC(C)=O)[C@H]2[C@H](OC(=O)c3ccccc3)[C@]3(O)CC(OC(=O)[C@H](O)[C@@H](NC(=O)NC(C)(C)C)c4ccccc4)=C(C)[C@H]([C@@H](OC(C)=O)C(=O)[C@]12C)C3(C)C` [Compound 67, 7-(O-methoxymethyl)-13-(N-t-butylaminocarbonyl-β-phenylisoserinyl)-Δ^12,13-iso-baccatin III], the Ratio: KBV-1/KB-3-1 (ratio of IC50 KB-V1 to IC50 KB-3-1) was 570000. Moreover, the IC50 (read-out: KB-V1 (IC50; nM), KB-V1 multidrug resistant cells, Table III) stood at 140 nM.
